Data: patent US20230398228A1, “ERIBULIN-BASED ANTIBODY-DRUG CONJUGATES AND METHODS OF USE” (EISAI R&D MANAGEMENT CO., LTD., priority 2016, published 2023)

Experiments:
Assay type in all cases: cell-based, human
[1] = tested on: HL-60 cells; test: Bystander killing assay, Nuclight Red HL-60; details: HL-60:IGROV1 ratio 2:1
[2] = tested on: NCI-N87 cells; test: Crystal Violet cytotoxicity assay (Example 4), NCI-N87
Protocol: (§1) Test reagents were serial diluted 1:3 in 2 mL deep-well dilution plates, starting at 200 nM (10 dilutions total). […] Medium was then discarded. […] Plates were read at 570 nm. Data was analyzed using GraphPad Prism 6.
(§2) NCI-H2110 cells are of human non-small cell lung carcinoma origin and express moderate levels of both folate receptor alpha and mesothelin (i.e., MORAb-003- and MORAb-009-reactive).

[3] = tested on: BT-474 cells; test: Crystal Violet cytotoxicity assay (Example 4), BT-474
Protocol: as §1, §2

With “MORAb-003-maleimido-PEG2-Val-Cit-pAB-eribulin [MORAb-202]” the “increase in killing of HL-60 cells in co-culture compared with HL-60 cells alone” value [1] was 2 log.
With “trastuzumab: humanized anti-human her2/neu antibody [reference compound]” the IC50 [2] was 780 pM and the IC50 [3] was 641 pM.
